From patent US20260078146A1, “EPHA2 TARGETING AGENTS AND USES THEREOF” (The Regents of the University of California, priority 2022, published 2026)

Chains of the proteins cited; added tags and fusions are not shown. Residues count along the entry.
UniProt P29317, 27-200 limits assumed: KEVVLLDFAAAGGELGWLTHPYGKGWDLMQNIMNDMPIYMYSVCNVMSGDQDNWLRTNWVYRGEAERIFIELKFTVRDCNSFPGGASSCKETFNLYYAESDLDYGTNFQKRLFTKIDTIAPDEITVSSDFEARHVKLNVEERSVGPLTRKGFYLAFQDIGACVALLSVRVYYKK

Tests used:
[1] = molecular target: T1, EphA2 ligand binding domain (EphA2-LBD), recombinant (UniProt P29317 27-200, limits assumed); assay: DELFIA displacement (assay not given); competitor: immobilised biotinylated peptide m48
T1 construct: also called EphA2 protein; isolated EphA2-LBD

[2] = molecular target: T1, EphA2 ligand binding domain …; assay: ITC

B1: 152B12 (35) (peptide)
peptide: YSAXPDSXPFRP
modifications: N-terminal PiperazineAcAcid cap; X4 = 2Me-Bip (4-(2-methylphenyl)-L-phenylalanine); X8 = Chg; C-terminal CONH2
IC50 [1]: 22.7 nM
Kd [2]: 8.6 nM
